Experimental findings from patent US20130197016A1, “DOSING REGIMES FOR THE TREATMENT OF OCULAR VASCULAR DISEASE” (priority 2010, published 2013) are described below.

The conditions of data set [1]: rat, in vivo.
For data set [2] the following is noted: rat, in vivo. This is another data set of the same source.

Each structure is given as a SMILES string.

For `C[C@H]1Cc2c(ncnc2Oc2ccc3c(ccn3C(=O)Nc3cc(C4(C)CC4)n[nH]3)c2)CN1` [Compound 2, 5-((S)-6-Methyl-5,6,7,8-tetrahydro-pyrido[3,4-d]pyrimidin-4-yloxy)-indole-1-carboxylic acid [5-(1-methyl-cyclopropyl)-2H-pyrazol-3-yl]-amide], in data set [1], the “Histopathological findings, test article-related changes” value was “no microscopic test article-related changes”. In addition, in data set [2] (Brown Norway), the “Dose at which increased severity of tubular basophilia and inflammatory infiltrates was present in the kidney” value worked out at 30 mg/kg/day; the “Doses at which acinar cell atrophy and decreased zymogen granules occurred in the pancreas” value is on record as ≥ 10 mg/kg/day; the “Doses at which hyalinization/edema of the choroid plexus interstitium and cellular debris affecting small arteries/arterioles were present” value is ≥ 10 mg/kg/day; the “Doses at which single cell necrosis of the exocrine pancreas occurred” value is reported as ≥ 3 mg/kg/day. Besides, in data set [2] (Brown Norway), the “Doses at which test article-related changes occurred in the pancreas” value is listed as ≥ 3 mg/kg/day and the “Doses at which test article-related glomerulopathy was present in the kidney” value is recorded as ≥ 10 mg/kg/day. Also, in data set [2], the “Histopathological findings, choroid plexus” value was “minimal inflammatory infiltrates that were associated with choroid plexus arterioles”; the “Histopathological findings, kidney” value is “minimal to mild glomerulopathy”; the “Histopathological findings, pancreas” value was “single cell necrosis of pancreatic acinar cells and occasional ductal cells”. Moreover, the “Safety profile compared to daily dosing, dosing every 2 days or every 4 days” value in data set [2] (po) is given as “improved safety profile”.
